Measured affinities in a library of Ab-95 light chain variants

Values reported by Engelhart et al. 2022, doi:10.1038/s41597-022-01779-4 (FLAb copy).

Target: peptide PDVDLGDISGINAS, taken from heptad repeat 2 (HR2) of SARS-CoV-2 spike.

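The parent was found by panning a naive human phage display library on the peptide. The library (AAYL52) carries one to three amino acid substitutions per variant, with no insertions or deletions. AlphaSeq pools MATa yeast showing the antibodies with MATalpha yeast showing the peptide. After mating in shaken culture at 30 °C for 16 h, diploids were selected and their barcode pairs sequenced. The ratio of observed to expected reads was calibrated, replicate by replicate, on BCL2-family standards whose Kd was known from biolayer interferometry. Mating was done three times.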

Ab-95 is the parent antibody, in scFv form: VH, then three GGGGS repeats, then VL. The heavy chain is unchanged in all variants.
VH: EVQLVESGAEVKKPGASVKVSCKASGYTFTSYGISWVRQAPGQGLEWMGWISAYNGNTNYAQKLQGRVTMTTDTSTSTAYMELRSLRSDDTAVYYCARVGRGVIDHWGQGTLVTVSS
VL: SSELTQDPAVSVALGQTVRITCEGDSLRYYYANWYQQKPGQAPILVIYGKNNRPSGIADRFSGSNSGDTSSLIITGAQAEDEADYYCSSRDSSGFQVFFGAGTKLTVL

The parent's light chain CDRs are EGDSLRYYYAN, GKNNRPS, SSRDSSGFQVF; each variant's own CDRs replace them letter for letter.
Kd is apparent (estimated from mating counts) and averaged on the log scale over replicates with a signal. Smaller is tighter.
"no signal" marks a missing value. The strain was present, yet no cells mated with the target were sequenced in any replicate, which points to weak or no binding.
For reference, the parent read 200 nM as the reference entry and 180 nM as a member of this library.

For EGDSLRYYYAN / GKKNMPS / SSRDMSGFQVF, the assay gave 130 µM (1 of 3 replicates).
For EGESLRYYYAI / GKNNNPS / SSRDSSGFQVF, the assay gave 3.3 µM (1 of 3 replicates).
For EGDSLRYYVAN / GKNNRPS / QSRDSRGFQVF, the assay gave 7.1 µM (3 of 3 replicates).
For EGDNLRYYYAA / GKNNRPS / SSRQSSGFQVF, the assay gave no signal (0 of 3 replicates).
For EGDSLRYYYSN / GKNNRPS / SERDSRGFQVF, the assay gave 7.8 µM (1 of 3 replicates).
For EGDSLRYYYAN / GKNNTPS / KGRDSSGFQVF, the assay gave 230 µM (2 of 3 replicates).
For EGDSLNYYYAN / GKEIRPS / SSRDSSGFQVF, the assay gave 360 nM (3 of 3 replicates).
For EGDSLRYYYAN / GKNNAPS / SSRDSRGFGVF, the assay gave 8.3 µM (1 of 3 replicates).
For EGDSLRYYYAH / GKNNWPS / SQRDSSGFQVF, the assay gave no signal (0 of 3 replicates).
For EGDSLLYYYAN / GKNNRPS / SSRLSSGFWVF, the assay gave 38 µM (3 of 3 replicates).
For PGDSLRYYYAN / GKNNRPS / SSRSSSGFQFF, the assay gave 21 µM (3 of 3 replicates).
For EGDSLRYYVAN / GKWNRPS / SSRESSGFQVF, the assay gave no signal (0 of 3 replicates).
For EGDSLRMYTAN / GKNNRPS / SSRDISGFQVF, the assay gave 220 nM (3 of 3 replicates).
For EGWSLRYYYAN / GKNNRPR / SSRDSSGFQVF, the assay gave 12 µM (3 of 3 replicates).
For EGDSLFKYYAN / GHNNRPS / SSRDSSGFQVF, the assay gave 470 nM (3 of 3 replicates).
For EGDSPRYYYAN / GKNNRCS / SSRDSSGFTVF, the assay gave 14 µM (3 of 3 replicates).
For EGYSLRYYYAN / GKNNRPS / SSRDTSGFQVF, the assay gave 120 nM (3 of 3 replicates).
For EGDSLRYFYAN / GKNNRPS / SSVDSSGFQVF, the assay gave no signal (0 of 3 replicates).
For EGDSLRYCYAN / GKNNCPS / SSRDSSGFQDF, the assay gave 1.0 µM (1 of 3 replicates).
For EGFSLRYYYAN / GKNNRWS / SSRDSSMFQVF, the assay gave 2.4 µM (2 of 3 replicates).
For EGDSLRYYYAG / GKNNRPS / SSRSSSGFQVG, the assay gave 2.4 µM (3 of 3 replicates).
For AGDSLYYYYAN / GKNNRPS / SSRDSSGFQVF, the assay gave 290 nM (3 of 3 replicates).
For EGDSLRYYYAN / GKNNRPS / SSMDSSGFQQF, the assay gave 420 nM (3 of 3 replicates).
For EGDHLRYYYAN / GINNRPS / SSEDSSGFQVF, the assay gave 1.6 µM (3 of 3 replicates).
For EGDSLRDYYAN / GKNNRPS / SSRDSSGYQVF, the assay gave 90 nM (3 of 3 replicates).
For IGDSPRYYYAN / GKNNDPS / SSRDSSGFQVF, the assay gave 34 µM (2 of 3 replicates).
For EGDSLRYYYAN / NKNNRPS / SSRDSSGDQVF, the assay gave 290 nM (3 of 3 replicates).
For EGDSLRYKYAN / GKNLRPS / SSRDRSGFQVF, the assay gave 32 nM (3 of 3 replicates).
For EGDSLRYYYAN / GKNNRPS / HSRNSSGIQVF, the assay gave 330 nM (3 of 3 replicates).
For EGDSLRYYYAN / GKNNRPS / SSRDSSGNKVF, the assay gave 210 nM (3 of 3 replicates).
For EGDSLPYYYAN / GKNNRPS / SSRDSVGTQVF, the assay gave 160 nM (3 of 3 replicates).
For EGDSLRYYYAN / GKNNRPS / SSRKSSGFCFF, the assay gave 46 µM (3 of 3 replicates).
For EGDSLRYYYAN / GKFNRPS / SSRCSMGFQVF, the assay gave 7.6 µM (1 of 3 replicates).
For EGDSNRGYYAN / CKNNRPS / SSRDSSGFQVF, the assay gave 14 µM (2 of 3 replicates).
For EGDSLDYYLAN / GKNNRPS / SSRDSSGFEVF, the assay gave 1.0 µM (3 of 3 replicates).
For EGDSLRYPEAN / GKNNRPS / WSRDSSGFQVF, the assay gave no signal (0 of 3 replicates).
For EGDPLCYYYAV / GKNNRPS / SSRDSSGFQVF, the assay gave 19 µM (2 of 3 replicates).
For YVDSLRYYYAN / IKNNRPS / SSRDSSGFQVF, the assay gave 21 µM (1 of 3 replicates).
For EGNSLRYSYAN / GGNNRPS / SSRDSSGFQVF, the assay gave 4.1 nM (3 of 3 replicates).
For EGGSLRYYYAH / GKNNRPS / SSRRSSGFQVF, the assay gave no signal (0 of 3 replicates).
For EGDSLRYYYSN / GKNNRPM / SSRDSSGFQVF, the assay gave 400 nM (3 of 3 replicates).
For PGDSLRYYYAN / GKNNRPS / SSRHSSGFQVC, the assay gave 270 µM (1 of 3 replicates).
For EGDSLRYYYAN / GKNNRPS / SSSDSNGAQVF, the assay gave 770 nM (2 of 3 replicates).
For EGDSLRYYVAN / GKNNRPS / SERDSSGFVVF, the assay gave 5.8 µM (3 of 3 replicates).
For EGDSLRYYYAN / GKNNCPS / PSRDSSGVQVF, the assay gave 34 µM (3 of 3 replicates).
For EGDSLRYYGDN / GKNNRPS / SSRDSWGFQVF, the assay gave 54 µM (1 of 3 replicates).
For EGDSLRYKYAN / GKNNRPW / MSRDSSGFQVF, the assay gave 4.7 nM (3 of 3 replicates).
For EGDSLRYWYAN / GKNNRPS / SSLDSSGFQKF, the assay gave 3.8 µM (1 of 3 replicates).
For EGDSLRLYYAH / GKNNRPS / SSRNSSGFQVF, the assay gave 7.3 µM (3 of 3 replicates).
For EGYSLYYYYAN / GKNNRPS / SSRDSSGFKVF, the assay gave 7.2 µM (3 of 3 replicates).
For EGDALRYYFAN / GKNNRPS / SSRDSSGFQMF, the assay gave 8.9 µM (3 of 3 replicates).
For EGDSLRYYKAN / GDNNRPS / SSRDSSGLQVF, the assay gave 82 nM (3 of 3 replicates).

For reference, 7 entries of the list once more:

EGYSLRYYYAN / GKNNRPS / SSRDTSGFQVF: 120 nM (3 of 3 replicates).
EGDSLRYYYAN / NKNNRPS / SSRDSSGDQVF: 290 nM (3 of 3 replicates).
EGDSLRYYYSN / GKNNRPS / SERDSRGFQVF: 7.8 µM (1 of 3 replicates).
EGDNLRYYYAA / GKNNRPS / SSRQSSGFQVF: no signal (0 of 3 replicates).
EGDSLRYKYAN / GKNNRPW / MSRDSSGFQVF: 4.7 nM (3 of 3 replicates).
EGDSLRYYYAN / GKNNRPS / HSRNSSGIQVF: 330 nM (3 of 3 replicates).
EGDSLFKYYAN / GHNNRPS / SSRDSSGFQVF: 470 nM (3 of 3 replicates).

Background: pairings of library AAYL52 with three empty control strains gave a value in 28% of cases (median 8.2 µM, 5th percentile 800 nM). Values in that range, when seen in few replicates, are hard to tell from nonspecific mating.